These results are taken from article PMC3150407, “Differential Inhibitor Sensitivity between Human Kinases VRK1 and VRK2” (PLoS ONE, 2011).

Protein sequences, listed by entry. Tags and fused reporters are not part of them. Lines headed by an entry give the natural chain unless they say otherwise; changes in a name come on top.
UniProt Q86Y07: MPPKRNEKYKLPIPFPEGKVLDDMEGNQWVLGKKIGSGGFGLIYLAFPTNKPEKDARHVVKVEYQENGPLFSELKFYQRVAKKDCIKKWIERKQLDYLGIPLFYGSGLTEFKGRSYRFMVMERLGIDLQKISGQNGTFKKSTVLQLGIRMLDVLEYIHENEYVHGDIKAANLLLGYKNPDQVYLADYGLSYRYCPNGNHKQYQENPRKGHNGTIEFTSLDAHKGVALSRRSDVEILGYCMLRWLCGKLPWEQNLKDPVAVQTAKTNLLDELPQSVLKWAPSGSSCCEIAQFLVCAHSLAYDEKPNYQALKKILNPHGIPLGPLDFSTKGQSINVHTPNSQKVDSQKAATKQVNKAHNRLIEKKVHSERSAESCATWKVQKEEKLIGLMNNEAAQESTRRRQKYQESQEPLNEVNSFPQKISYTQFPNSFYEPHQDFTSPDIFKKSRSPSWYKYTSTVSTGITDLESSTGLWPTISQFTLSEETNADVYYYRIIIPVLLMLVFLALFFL

In assay [1] the target is T1, GST-VRK1 (Homo sapiens, UniProt Q99986).
T1 construct: made in house
T1 sequence (Q99986 1-396): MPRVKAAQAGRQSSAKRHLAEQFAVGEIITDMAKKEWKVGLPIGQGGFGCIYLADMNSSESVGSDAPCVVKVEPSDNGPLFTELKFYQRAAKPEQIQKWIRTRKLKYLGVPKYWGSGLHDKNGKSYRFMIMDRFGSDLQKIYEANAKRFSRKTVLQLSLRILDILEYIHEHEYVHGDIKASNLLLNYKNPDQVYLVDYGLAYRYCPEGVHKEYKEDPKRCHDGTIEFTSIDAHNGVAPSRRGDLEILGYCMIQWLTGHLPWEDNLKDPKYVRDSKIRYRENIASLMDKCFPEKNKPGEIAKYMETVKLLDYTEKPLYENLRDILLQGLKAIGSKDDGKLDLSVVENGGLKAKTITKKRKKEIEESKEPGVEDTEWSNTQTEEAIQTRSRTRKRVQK
Kind of assay: In vitro kinase assay, GST-VRK1 phosphorylation of histone H3. Format: biochemical.

The target of assay [2] is T2, GST-VRK2A (Homo sapiens, UniProt Q86Y07). The assay can be described thus: In vitro kinase assay, GST-VRK2A autophosphorylation. The following applies: read-out: IC50 (µM) GST-VRK2A Auto-phosphorylation.
For assay [3], the target named is T1, GST-VRK1. Kind of assay: In vitro kinase assay, GST-VRK1 autophosphorylation. It is filed as biochemical.
Assay [4] concerns the target T2, GST-VRK2A. The assay can be described thus: In vitro kinase assay, GST-VRK2A phosphorylation of histone H3. It is filed as biochemical. Also noted: a full-length protein of 508 aminoacids (known as VRK2 and VRK2A); made in house; host or cells: E. coli BL21.

As to Indirubin-3’-monoxime, the “IC50 (µM) GST-VRK1 H3 phosphorylation” value in assay [1] was “No inhibition”. The half-inhibitory concentration (IC50) amounted to 50.7 ± 1.23 µM in assay [2] and 57.2 ± 1.17 µM in assay [4]. For the same substance, the “IC50 (µM) GST-VRK1 Auto- phosphorylation” value in assay [3] is on record as “No inhibition”.

Broadly, the IC50 is the concentration at which inhibition is half-maximal.
